Measurements reported in patent US11707440B2 (priority 2017, dated 2023).
Entries after “also recorded” stand apart in the source; their conditions may differ.

Experiments:
[1] = system: female Sprague-Dawley rats, PCG/RSC of the brain; assay: Single dose neurotoxicity study, intranasal instillation
[2] = system: female Sprague-Dawley rats, PCG/RSC of the brain; assay: 14-day repeated dose neurotoxicity study, intranasal instillation; conditions: 1 mg/kg SC

Substance: (+)MK-801 maleate [reference compound]
- Animals with lesion severity scored marked ([1]; single dose study, 1 mg/kg SC): 25 out of 30 females
- Body weight loss within the first 48 hours after treatment ([1]; single subcutaneous dose 1 mg/kg): 13-14%
- Grade of most neuronal necrosis lesions ([1]; single subcutaneous dose 1 mg/kg, both studies): grade 3 or 4
- Mortality ([1]; single subcutaneous dose 1 mg/kg, single dose and repeated dose study): No mortality
- Neuronal necrosis in the PCG/RSC ([1]; single subcutaneous dose 1 mg/kg, single dose and repeated dose study, 1 mg/kg): neuronal necrosis was observed; also recorded: all treated animals; also recorded: presence
- Neuronal necrosis in the PCG/RSC ([1]; single subcutaneous dose 1 mg/kg, single dose and repeated dose study, listed as (+)MK801 maleate, 1 mg/kg): all rats
- Neuronal necrosis in the PCG/RSC ([1]; single subcutaneous dose 1 mg/kg, single dose and repeated dose study, listed as (+)MK-801, 1 mg/kg): presence
- Animals with lesion severity scored marked [2]: 7 out of 12 animals
